Among the data in US6521659B2, “Compositions containing a substituted indolealkanoic acid and an angiotensin converting enzyme inhibitor” (Institute for Pharmaceutical Discovery, LLC, priority 2000, dated 2003) are IC50 values, retold here.

This experiment concerns the target human aldose reductase (hALR2) (Homo sapiens, UniProt P15121). Briefly: Inhibition of human aldose reductase (hALR2), methods similar to Butera et al. In kind it is biochemical. How it is done: Representative compounds of Formula Iwere tested for their potency, selectivity and efficacy as inhibitors of human aldose reductase.
Since high potency of test compounds as inhibitors of aldose reductase is desirable, low hALR2 IC50 values are sought. On the other hand, high potency of test compounds as inhibitors of aldehyde reductase is undesirable, and high ALR1 IC50s values are sought. Accordingly, the hALR1/hALR2 ratio is used to determine the selectivity of the test compounds. The importance of this selectivity is Described in Kotani, et al., J. Med. Chem. 40: 684, 1997.

One may read the IC50 as the concentration at which inhibition is half-maximal.

In the case of “3-[6-Fluorbenzothiazole-2-yl]methyl-indole-N-acetic Acid [Example 24]”, the IC50 is 1.04 µM.
